Entries after “also recorded” stand apart in the source; their conditions may differ.
Assay: Dispersion stability test in water (absorbance at 650 nm)
Assay type: physicochemical
Details: 10 mg/mL in water, stirred and suspended, FIG. 6
Procedure: MEL-B or MEL-C at a concentration of 10 mg/mL was added to water, stirred and suspended. Its absorbance at 650 nm was measured.

Question: Which dispersion stability does the source give for mannosylerythritol lipid B [MEL-B] here?
Answer: particularly excellent in dispersion stability; also recorded: more excellent than MEL-A in water dispersion stability

Source: patent publication US20110257116A1, “BIOSURFACTANT-CONTAINING SKIN CARE COSMETIC AND SKIN ROUGHNESS-IMPROVING AGENT” (National Institute Of Advanced Industrial Science And …, priority 2005, published 2011)
